Experimental data taken from patent US20260167693A1 (ANGELES THERAPEUTICS, published 2026).

B1: CD8SP-V5-[hTCRb-KACIAH]-F-P2A-CD8SP-FMC63-vL-Gly-Ser-Linker-FMC63-vH-Myc-[hTCRa-CSDVP]-F-F2A-PAC (082815-G07)[SEQ ID NO:1620] (other)
TCR beta: GKPIPNPLLGLDSTGSGEDLKNVFPPEVAVFEPSKAEIAHTQKATLVCLATGFYPDHVELSWWVNGKEVHSGVCTDPQPLKEQPALNDSRYCLSSRLRVSATFWQNPRNHFRCQVQFYGLSENDEWTQDRAKPVTQIVSAEAWGRADCGITSASYHQGVLSATILYEILLGKATLYAVLVSALVLMAMVKRKDSRG
TCR alpha: DIQMTQTTSSLSASLGDRVTISCRASQDISKYLNWYQQKPDGTVKLLIYHTSRLHSGVPSRFSGSGSGTDYSLTISNLEQEDIATYFCQQGNTLPYTFGGGTKLEITGGGGSGGGGSGGGGSEVKLQESGPGLVAPSQSLSVTCTVSGVSLPDYGVSWIRQPPRKGLEWLGVIWGSETTYYNSALKSRLTIIKDNSKSQVFLKMNSLQTDDTAIYYCAKHYYYGGSYAMDYWGQGTSVTVSSEQKLISEEDGSGIQNPDPAVYQLRDSKSSDKSVCLFTDFDSQTNVSQSKDSDVYITDKCVLDMRSMDFKSNSAVAWSNKSDFACANAFNNSIIPEDTFFPSSDVPCDVKLVEKSFETDTNLNFQNLSVIGFRILLLKVAGFNLLMTLRLWSS
notes: scFv on TCRa, empty TCRb; Polyprotein PRT 3855
B2: CD8SP-V5-[hTCRb-KACIAH]-F-P2A-CD8SP-CD19Bu12-vL-Gly-Ser-Linker-CD19Bu12-vH-Myc-[hTCRa-CSDVP]-F-F2A-PAC (082815-E05)[SEQ ID NO:1622] (other)
TCR beta: B1 TCR beta
TCR alpha: EIVLTQSPATLSLSPGERATLSCSASSSVSYMHWYQQKPGQAPRLLIYDTSKLASGIPARFSGSGSGTDFTLTISSLEPEDVAVYYCFQGSVYPFTFGQGTKLEIKRGGGGSGGGGSGGGGSQVQLQESGPGLVKPSQTLSLTCTVSGGSISTSGMGVGWIRQHPGKGLEWIGHIWWDDDKRYNPALKSRVTISVDTSKNQFSLKLSSVTAADTAVYYCARMELWSYYFDYWGQGTLVTVSSEQKLISEEDGSGIQNPDPAVYQLRDSKSSDKSVCLFTDFDSQTNVSQSKDSDVYITDKCVLDMRSMDFKSNSAVAWSNKSDFACANAFNNSIIPEDTFFPSSDVPCDVKLVEKSFETDTNLNFQNLSVIGFRILLLKVAGFNLLMTLRLWSS
notes: Polyprotein PRT 3857
B3: CD8SP-MPL-161-vL-V5-[hTCRb-S57C-opt1]-F-P2A-MPL-161-vH-Myc-[hTCRa-T48C-opt1]-F-F2A-PAC (040315-U02)[SEQ ID NO:1112] (other)
TCR beta: DIQMTQSSSSFSVSLGDRVTITCMASEDIYIRLAWYQQKPGNAPRLLISAATSLETGVPSRFSGSGSGKDYTLSITSLQTEDVGTYYCQQYWSSPWTFGGGTKLEINGKPIPNPLLGLDSTGSGEDLKNVFPPEVAVFEPSEAEISHTQKATLVCLATGFYPDHVELSWWVNGKEVHSGVCTDPQPLKEQPALNDSRYCLSSRLRVSATFWQNPRNHFRCQVQFYGLSENDEWTQDRAKPVTQIVSAEAWGRADCGFTSESYQQGVLSATILYEILLGKATLYAVLVSALVLMAMVKRKDSRG
TCR alpha: DVQLQESGPGLVKPSQSLSLTCTVTGYSITSDYTWNWIRQFPGNKLEWMGYITYSGSTSYNPSLKSRNSITRDTSKNQFFLQLNSVTTEDTATYYCARLGRRYTMDYWGQGTSVTVSSEQKLISEEDGSGPDPAVYQLRDSKSSDKSVCLFTDFDSQTNVSQSKDSDVYITDKCVLDMRSMDFKSNSAVAWSNKSDFACANAFNNSIIPEDTFFPSPESSCDVKLVEKSFETDTNLNFQNLSVIGFRILLLKVAGFNLLMTLRLWSS
notes: MPL SIR used as control; Polyprotein PRT 3347

Key:
[1] = molecular target: T1, CD19-ECD-GGSG-NLuc-AcV5 (human); assay: NLuc binding assay, SIR on primary human T cells
T1 construct: also called CD19-GGSG-NLuc-AcV5; Flag-CD19-GGSG-NLuc-AcV5
T1 chain: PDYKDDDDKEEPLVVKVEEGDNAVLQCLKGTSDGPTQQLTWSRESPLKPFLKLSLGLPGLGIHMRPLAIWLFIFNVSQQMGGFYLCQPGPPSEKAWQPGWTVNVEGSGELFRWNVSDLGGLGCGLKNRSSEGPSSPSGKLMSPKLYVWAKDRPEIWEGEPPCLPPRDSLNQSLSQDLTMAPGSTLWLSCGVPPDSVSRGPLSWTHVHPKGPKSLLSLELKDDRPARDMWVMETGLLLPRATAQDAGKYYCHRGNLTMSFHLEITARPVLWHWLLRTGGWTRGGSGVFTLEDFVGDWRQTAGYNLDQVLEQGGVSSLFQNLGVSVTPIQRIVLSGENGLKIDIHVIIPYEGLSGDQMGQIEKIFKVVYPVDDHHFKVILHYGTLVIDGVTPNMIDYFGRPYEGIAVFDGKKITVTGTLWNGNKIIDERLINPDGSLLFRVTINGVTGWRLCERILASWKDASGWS

[2] = molecular target: T1, CD19-ECD-GGSG-NLuc-AcV5; assay: NLuc binding assay, SIR on Jurkat-NFAT-Luc cells; parental Jurkats 1515

| Binder | mean NLuc value [1] | NLuc value [2] |
| --- | --- | --- |
| B1 | 29300 | 27600 |
| B2 | 4670 | 10300 |
| B3 |  | 179 |
